Protein sequences, listed by entry. Tags and fused reporters are not part of them.
UniProt Q01827, whole entry: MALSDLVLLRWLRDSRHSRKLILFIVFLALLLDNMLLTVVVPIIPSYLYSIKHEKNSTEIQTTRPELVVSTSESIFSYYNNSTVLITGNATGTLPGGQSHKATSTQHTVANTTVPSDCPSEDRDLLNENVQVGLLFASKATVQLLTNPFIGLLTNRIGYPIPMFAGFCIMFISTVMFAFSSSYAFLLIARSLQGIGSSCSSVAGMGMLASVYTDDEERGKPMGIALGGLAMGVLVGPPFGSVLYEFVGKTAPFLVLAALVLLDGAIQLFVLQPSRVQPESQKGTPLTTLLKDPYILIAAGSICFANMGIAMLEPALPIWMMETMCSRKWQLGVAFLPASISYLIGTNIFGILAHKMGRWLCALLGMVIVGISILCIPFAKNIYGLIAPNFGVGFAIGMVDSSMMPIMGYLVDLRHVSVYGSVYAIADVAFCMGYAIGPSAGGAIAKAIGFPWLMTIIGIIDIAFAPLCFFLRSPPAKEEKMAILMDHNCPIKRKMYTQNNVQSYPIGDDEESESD

In US10993941B2, “Methods for the administration of certain VMAT2 inhibitors” (Neurocrine Biosciences, Inc., priority 2017, dated 2021):

Molecular target: T1, VMAT2 (Rattus norvegicus, UniProt Q01827)
T1 construct: from tissue; host or cells: rat forebrain membranes
Type: binding
Conditions: rat forebrain

| Structure (SMILES) | affinity weaker than R,R,R-DHTBZ |
| --- | --- |
| COc1cc2c(cc1OC)[C@@H]1C[C@H](O)[C@@H](CC(C)C)CN1CC2 [S,S,S-DHTBZ] | approximately 60 times |
| COc1cc2c(cc1OC)[C@@H]1C[C@@H](O)[C@@H](CC(C)C)CN1CC2 [R,S,S-DHTBZ] | ~160 times |
